Test system: subcutaneous, immunodeficient xenograft model of adrenal cancer
Test: Subcutaneous xenograft model of adrenal cancer
Type: in vivo, mouse
Conditions: 200 mg/kg PO daily
Protocol: To test if disruption of SF1/β-catenin complexes in vivo can cause dedifferentiation (Example 1 and 2) and disrupt tumor growth, the impact of EZH2 inhibition on a xenograft model derived from the Borges et al. Oncogene 2020 genetically engineered mouse model detailed in FIG. 25 was assayed.

SMILES: CCN(c1cc(-c2ccc(CN3CCOCC3)cc2)cc(C(=O)NCc2c(C)cc(C)[nH]c2=O)c1C)C1CCOCC1 [EPZ-6438]
- EZH2/β-catenin complexes (PLA signal) (PLA): retention of off chromatin EZH2/β-catenin
- proliferation rate (Ki67 index) (immunohistochemistry, compared to vehicle): decreases

Source: patent US20240082272A1, “COMPOSITIONS AND METHODS FOR TREATING WNT-DRIVEN CANCER” (The Regents of the University of Michigan, priority 2020, published 2024)
